# Article PMC12280212
# Only a part is listed here, and it is no random draw.
# Molecular target: Actin, cytoplasmic 1 (UniProt P60709)
# Assay: cross-linking mass spectrometry
substance,measurement,value
"Protein S100-A6, P06703",listed as a hit,yes
